# Source: US20040029777A1, “Pharmaceutical preparation for taste masking” (TAISHO PHARMACEUTICAL CO., LTD., priority 2002, published 2004)
# Assay: In vitro dissolution test, USP apparatus 2 (paddle)
# Assay type: physicochemical
# Conditions: 37° C., 50 rpm
# Method: Complexes that corresponded to 150 mg of ibuprofen were subjected to dissolution in a USP (United States Pharmacopoeia) dissolution apparatus 2 (Paddle-type) with several kinds of solutions (900 ml). This dissolution test was conducted at 37° C., and a paddle rotation speed of 50 rpm was maintained. A UV detector was used to measure the absorbance of dissolution liquids at regular intervals of up to 120 minutes.
# The complexes containing 150 mg of ibuprofen were subjected to dissolution testing using a USP dissolution apparatus 2 (Paddle-type) with several kinds of solutions (900 ml). This dissolution test was conducted at 37° C., at a paddle rotation speed of 50 rpm. A UV detector was used to measure the absorbance of dissolution liquids at regular intervals up to 120 minutes.
substance,measurement,value
Ibuprofen-lysine Salt [Ibuprofen-lysine salt complex],solubility in distilled water,high
